From patent US20050255042A1, “On-demand cleavable linkers for radioconjugates for cancer imaging and therapy” (The Regents of the University of California Office of …, priority 2003, published 2005)

Columns and labels:
[1] = Cleavage of soluble peptides in human plasma alone, fluorescence plate reader; format: in vitro ADME; conditions: 90 μM peptide, 10 μl plasma in PBS pH 7.2, without TNKase®
Method: The peptides in Table 3 were re-synthesized in soluble form with nitrotyrosine (Y(NO2) at the N-terminus and Abz at the ε-amino group of the lysine residue (k(Abz)) at the C-terminus. They were then incubated with human plasma alone or plasma plus TNKase® in a 96-well plate and the cleavage reaction was monitored over a period of time with a fluorescent plate reader. Each well contained 90 μM of peptides, 10 μl of plasma in PBS, ph 7.2, with or without 1 μg of TNKase®, in a final volume of 100 μl. Cleavage was measured as fluorescence intensity at different time intervals in the fluorescence plate reader at 360/440 nm excitation and emission range.

[2] = Stability of peptides in supernatants from tumor cell line cultures; conditions: supernatants of several tumor cell lines in log phase

In the case of PFGRSA, the “stability / cleavage in human plasma” value [1] is reported as “highly susceptible to cleavage” and the “stability / cleavage in tumor cell culture supernatants” value [2] is reported as “highly susceptible to cleavage”.
